Results on 16 molecules are retold here after US20260124309A1, “STAT6 DEGRADERS AND USES THEREOF” (Kymera Therapeutics, Inc., priority 2023, published 2026).

By UniProt entry, the sequences of proteins in these tests, tags left out. Residues count along the entry.
UniProt P42226, whole entry: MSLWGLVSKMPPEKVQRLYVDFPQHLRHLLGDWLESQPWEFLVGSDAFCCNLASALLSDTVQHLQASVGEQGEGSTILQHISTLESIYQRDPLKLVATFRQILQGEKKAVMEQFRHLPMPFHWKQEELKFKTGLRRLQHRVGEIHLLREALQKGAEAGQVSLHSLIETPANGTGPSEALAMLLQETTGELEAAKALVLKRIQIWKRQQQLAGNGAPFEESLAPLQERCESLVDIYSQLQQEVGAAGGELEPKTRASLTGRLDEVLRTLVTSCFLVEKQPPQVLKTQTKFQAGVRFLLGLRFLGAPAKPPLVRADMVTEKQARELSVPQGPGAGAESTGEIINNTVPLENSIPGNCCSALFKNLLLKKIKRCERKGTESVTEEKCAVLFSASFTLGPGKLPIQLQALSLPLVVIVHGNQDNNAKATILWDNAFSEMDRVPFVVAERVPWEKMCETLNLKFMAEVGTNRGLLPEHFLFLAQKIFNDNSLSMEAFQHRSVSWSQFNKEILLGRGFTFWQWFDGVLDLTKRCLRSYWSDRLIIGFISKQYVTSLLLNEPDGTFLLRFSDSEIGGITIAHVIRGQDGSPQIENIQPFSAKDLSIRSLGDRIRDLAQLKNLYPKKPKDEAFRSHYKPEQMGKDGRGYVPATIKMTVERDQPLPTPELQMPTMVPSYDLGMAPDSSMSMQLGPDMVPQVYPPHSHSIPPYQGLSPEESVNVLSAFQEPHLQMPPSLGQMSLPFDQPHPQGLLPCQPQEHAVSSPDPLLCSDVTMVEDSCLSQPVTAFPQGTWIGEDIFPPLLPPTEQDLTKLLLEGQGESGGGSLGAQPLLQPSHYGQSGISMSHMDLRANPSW
UniProt P42226, 123-632 limits assumed: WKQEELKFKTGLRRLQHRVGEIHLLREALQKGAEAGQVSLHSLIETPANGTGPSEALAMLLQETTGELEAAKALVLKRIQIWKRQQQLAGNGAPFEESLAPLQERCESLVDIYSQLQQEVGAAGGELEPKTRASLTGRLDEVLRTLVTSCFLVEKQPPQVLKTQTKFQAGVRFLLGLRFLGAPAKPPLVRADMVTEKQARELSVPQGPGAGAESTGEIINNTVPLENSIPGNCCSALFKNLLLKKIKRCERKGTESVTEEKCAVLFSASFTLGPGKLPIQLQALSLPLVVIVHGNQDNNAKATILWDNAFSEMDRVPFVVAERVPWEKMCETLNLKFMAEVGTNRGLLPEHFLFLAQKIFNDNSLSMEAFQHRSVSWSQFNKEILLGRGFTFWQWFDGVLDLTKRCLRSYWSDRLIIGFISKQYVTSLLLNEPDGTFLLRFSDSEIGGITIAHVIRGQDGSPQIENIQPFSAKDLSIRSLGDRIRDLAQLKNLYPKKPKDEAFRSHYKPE

Bounds are passed on as bounds.

For orientation: IC50 means the midpoint of a concentration-inhibition curve. The DC50 is the midpoint of the concentration-degradation curve.

The target in assay [1] is biotinylated truncated STAT6 (123-632)-avi (Homo sapiens, UniProt P42226). As to the kind of experiment: STAT6 HTRF binding assay. The settings on record: read-out: STAT6 HTRF: Average IC50; HTRF binding, 0.15 nM biotinylated truncated STAT6 (123-632)-avi, 20 nM fluorescein-labeled probe. (Time-resolved FRET reads energy transfer from a long-lived donor to a nearby acceptor.)

For the next assay, the target named is STAT6 (Homo sapiens, UniProt P42226). As to the kind of experiment: STAT6 MSD degradation in A549 cells. The settings on record: for DC50: read-out: STAT6 MSD degradation DC50 (nM) 24 h. Summed up: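 A549 cells treated with a 9-point 1:3 series (top up to 10 uM) for 4 to 24 hours at 37° C., then lysed in RIPA. STAT6 quantified by sandwich MSD electrochemiluminescence immunoassay. DC50 and Dmax from four-parameter nonlinear fit, reported as letter-code bins.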

On to `COc1cc(N2CCC(N3CCN(c4ccc(-c5cc([C@H]6CCCN(C(=O)CCn7cccn7)C6)c(F)c6[nH]c(C(=O)N(C)C)cc56)cc4)CC3)CC2)c(F)cc1NC1CCC(=O)NC1=O` (stereo partly drawn), for which the concentration for half-maximal inhibition (IC50) in assay [1] was under 100 nM. On STAT6, the “STAT6 MSD degradation Dmax % 24 h” value is listed as “A (A (>90%))” and the DC50 was under 1 nM.
On to `CN(C)C(=O)c1cc2c(-c3ccc(N4CCC5(CC4)CN(c4ccc(C(=O)NC6CCC(=O)NC6=O)cc4Cl)C5)cc3)cc(C3=CCCN(C(=O)CCn4cccn4)C3)c(F)c2[nH]1` (stereo not drawn), for which the IC50 in assay [1] lay within 100 to 1000 nM. On STAT6, the “STAT6 MSD degradation Dmax % 24 h” value is “B (B (>70-90%))” and the DC50 lay within 1 to 10 nM.
On to `Cc1nn(C2CCC(=O)NC2=O)c2cccc(CCN3CCN(c4cc(Cl)c(-c5cc(C6=CCCN(C(=O)C(C)C)C6)c(F)c6[nH]c(C(=O)N(C)C)cc56)cc4F)CC3)c12` (stereo not drawn), for which the IC50 in assay [1] was in the range of 1000 to 10000 nM. Further, at STAT6, the “STAT6 MSD degradation Dmax % 24 h” value is on record as “A (A (>90%))” and the DC50 was 1 to 10 nM.
Turning to `Cc1nn(C2CCC(=O)NC2=O)c2cccc(CCN3CCN(c4ccc(-c5cc([C@H]6CCCN(C(=O)CCn7cccn7)C6)c(F)c6[nH]c(C(=O)N(C)C)cc56)c(F)c4F)CC3)c12` (stereo partly drawn), the IC50 in assay [1] is under 100 nM. Further, on STAT6, the “STAT6 MSD degradation Dmax % 24 h” value is on record as “A (A (>90%))” and the DC50 is under 1 nM.
On to `COc1cc(C2CCN(c3cccc4c3n(C)c(=O)n4C3CCC(=O)NC3=O)CC2)c(F)cc1-c1cc([C@H]2CCCN(C(C)=O)C2)c(F)c2[nH]c(C(=O)N(C)C)cc12` (stereo partly drawn), for which the IC50 in assay [1] fell in the range of 100 to 1000 nM. At STAT6, the “STAT6 MSD degradation Dmax % 24 h” value is reported as “A (A (>90%))” and the DC50 was under 1 nM.
As for `COc1cc([C@H]2CC[C@@H](c3ccc(-c4cc(C5=CCCN(C(=O)CCn6ccnn6)C5)c(F)c5[nH]c(C(=O)N(C)C)cc45)cc3)CC2)c(F)cc1NC1CCC(=O)NC1=O` (stereo partly drawn), the IC50 in assay [1] was 100 to 1000 nM. On STAT6, the “STAT6 MSD degradation Dmax % 24 h” value is given as “A (A (>90%))” and the DC50 is under 1 nM.
Regarding `COc1cc(N2CCN(c3ccc(-c4cc([C@H]5CCCN(C(=O)CCn6cccn6)C5)c(F)c5[nH]c(C(=O)N(C)C)cc45)c(F)c3F)CC2)c(F)cc1NC1CCC(=O)NC1=O` (stereo partly drawn), in assay [1], the IC50 was under 100 nM. Further, on STAT6, the “STAT6 MSD degradation Dmax % 24 h” value was “A (A (>90%))” and the DC50 was under 1 nM.
In the case of `CN(C)C(=O)c1cc2c(-c3ccc(N4CCN(c5ccc(NC6CCC(=O)NC6=O)cc5F)CC4)c(F)c3)cc(C3=CCCN(C(=O)CCn4cccn4)C3)c(F)c2[nH]1` (stereo not drawn), the IC50 in assay [1] is under 100 nM. Further, on STAT6, the “STAT6 MSD degradation Dmax % 24 h” value was “B (B (>70-90%))” and the DC50 was 1 to 10 nM.
As for `CN(C)C(=O)c1cc2c(F)c([C@H]3CCCN(C(=O)CCn4cccn4)C3)cc(-c3ccc(N4CCN(CCc5cccc6c5n(C)c(=O)n6C5CCC(=O)NC5=O)CC4)cc3Cl)c2o1` (stereo partly drawn), in assay [1], the IC50 is under 100 nM. At STAT6, the “STAT6 MSD degradation Dmax % 24 h” value is reported as “B (B (>70-90%))” and the DC50 is under 1 nM.
Turning to `COc1cc(C2CCN(c3ccc(-c4cc(C5=CCCN(C(=O)CCn6cccn6)C5)c(F)c5[nH]c(C(=O)N(C)C)cc45)c(C)c3F)CC2)c(F)cc1NC1CCC(=O)NC1=O` (stereo not drawn), the IC50 in assay [1] was 100 to 1000 nM. On STAT6, the “STAT6 MSD degradation Dmax % 24 h” value was “A (A (>90%))” and the DC50 fell in the range of 1 to 10 nM.
The matching figures for `COc1cc(N2CCN(c3ccc(-c4cc(C5=CCCN(C(=O)CCn6cccn6)C5)c(F)c5[nH]c(C(=O)N(C)C)cc45)c(Cl)c3F)CC2)c(F)cc1NC1CCC(=O)NC1=O` (stereo not drawn): under 100 nM, “A (A (>90%))” and under 1 nM.
Turning to `Cc1nn(C2CCC(=O)NC2=O)c2cccc(N3CCC(c4ccc(-c5cc(C6=CCCN(C(=O)CCn7cccn7)C6)c(F)c6[nH]c(C(=O)N(C)C)cc56)cc4)CC3)c12` (stereo not drawn), the IC50 in assay [1] was in the range of 100 to 1000 nM. For the same molecule, at STAT6, the “STAT6 MSD degradation Dmax % 24 h” value is given as “A (A (>90%))” and the DC50 was 1 to 10 nM.
In the case of `COc1cc(N2CCN(c3cc(F)c(-c4cc([C@H]5CCCN(C(=O)CCn6cccn6)C5)c(F)c5[nH]c(C(=O)N(C)C)cc45)cc3F)CC2)c(F)cc1NC1CCC(=O)NC1=O` (stereo partly drawn), the IC50 in assay [1] was under 100 nM. For the same molecule, at STAT6, the “STAT6 MSD degradation Dmax % 24 h” value is “B (B (>70-90%))” and the DC50 was in the range of 1 to 10 nM.
As for `CC(C)C(=O)N1CCC=C(c2cc(-c3ccc([C@@H]4CCN(CCc5cccc6c(C7CCC(=O)NC7=O)nn(C)c56)CC4(F)F)cc3F)c3cc(C(=O)N(C)C)[nH]c3c2F)C1` (stereo partly drawn), the IC50 in assay [1] was in the range of 1000 to 10000 nM. On STAT6, the “STAT6 MSD degradation Dmax % 24 h” value is given as “A (A (>90%))” and the DC50 was under 1 nM.
In the case of `CC(C)C(=O)N1CCC=C(c2cc(-c3cc(F)c(N4CCN(CCc5cccc6c5n(C)c(=O)n6C5CCC(=O)NC5=O)CC4)cc3F)c3cc(C(=O)N(C)C)[nH]c3c2F)C1` (stereo not drawn), the IC50 in assay [1] was in the range of 100 to 1000 nM. Moreover, on STAT6, the “STAT6 MSD degradation Dmax % 24 h” value is on record as “A (A (>90%))” and the DC50 lay within 1 to 10 nM.
For `COc1cc(N2CCN(c3ccc(-c4cc(C5=CCCN(C(=O)CCn6cccn6)C5)c(F)c5[nH]c(C(=O)N(C)C)cc45)cc3F)CC2)c(F)cc1NC1CCC(=O)NC1=O` (stereo not drawn) the same measures were under 100 nM, “B (B (>70-90%))” and under 1 nM.
